The target of the assay is T1, Arachidonate 5-lipoxygenase (Bos taurus, UniProt Q9BEG3).
T1 sequence (Q9BEG3 whole entry): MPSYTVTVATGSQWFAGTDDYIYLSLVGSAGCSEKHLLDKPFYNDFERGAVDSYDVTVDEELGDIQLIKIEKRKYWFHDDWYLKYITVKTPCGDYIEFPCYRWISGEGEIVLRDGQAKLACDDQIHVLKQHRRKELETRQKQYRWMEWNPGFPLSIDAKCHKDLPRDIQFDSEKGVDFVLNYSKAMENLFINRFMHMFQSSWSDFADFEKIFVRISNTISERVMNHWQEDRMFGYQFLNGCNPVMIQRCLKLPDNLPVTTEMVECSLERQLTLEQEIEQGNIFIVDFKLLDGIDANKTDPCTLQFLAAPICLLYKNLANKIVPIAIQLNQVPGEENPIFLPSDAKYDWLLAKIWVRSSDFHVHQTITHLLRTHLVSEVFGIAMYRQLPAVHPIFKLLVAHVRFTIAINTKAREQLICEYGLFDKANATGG
The experiment in a line: 5-LO inhibitory activity was determined by inhibition of LTB4 biosynthesis in bovine polymorphonuclear leukocytes (PMNL). The class given is functional, cell-based. The method, boiled down: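 LTB4 biosynthesis measured in bovine polymorphonuclear leukocytes, with NDGA as the standard inhibitor; N = 3 or more, significance versus control at P < 0.01.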

Structures are written as SMILES. pIC50: −log10 of the molar value.

The record followed here is ChEMBL document CHEMBL1130234 (J Med Chem, 1997).

Usually pIC50 stands for the IC50 on a negative log10 scale, so that one unit is a factor of ten. `O=C1c2cccc(O)c2Cc2cccc(O)c21` gave a pIC50 of 5.00.
